In patent US9211260B2, “Methods of reducing the effects of exposure to a mustard compound by administering RLIP76” (dated 2015):

System: mice
Assay: Melphalan dose escalation study in mice
Conditions: dose escalation with three concentrations, regression analysis

N[C@@H](Cc1ccc(N(CCCl)CCCl)cc1)C(=O)O
LD90/30: 25.2 mg/kg
